The values that follow come from patent US20260022352A1, “COMPOSITIONS AND METHODS FOR PURIFYING […]” (North Carolina State University, priority 2023, published 2026).

Assay [1] deals with VSV-G-pseudo-typed lentiviral vector particles (vesicular stomatitis virus) (UniProt P03522). In words: CaptureSelect Lenti VSVG Affinity Matrix (agarose), clarified HEK293 CCF.
The target is the same in assay [2]. In words: breakthrough on peptide-Poros column, clarified HEK293 CCF, RT 1 min, RT-qPCR. (Real-time PCR tracks product formation cycle by cycle.)
Assay [3] shares this target. Kind of assay: breakthrough on peptide-Poros column, clarified HEK293 CCF, RT 2 min, RT-qPCR.
For assay [4] the target is unchanged. In words: Eshmuno 800-50 resin (PVE), clarified HEK293 CCF, RT 1 min.
Assay [5] has the same target. Kind of assay: ToyoPearl 750 resin (PMMA), clarified HEK293 CCF, RT 1 min.
Assay [6] has the same target. In words: 50 purification cycles on Poros resin with 0.5 M NaOH CIP between.
For assay [7] the target is unchanged. Kind of assay: ToyoPearl 650 resin (PMMA), clarified HEK293 CCF, RT 1 min.
Assay [8] has the same target. Kind of assay: Poros resin (PS), clarified HEK293 CCF, RT 1 min.
For assay [9] the target is unchanged. In words: Poros resin, G spacer, clarified HEK293 CCF, RT 1 min.

In assay [1], “Camelid Antibody (VHH) ligand of CaptureSelect™ Lenti VSVG Affinity Matrix” came in with a DBC10% (TU/mL of resin) of 2.3e+08.
In the case of FEKISNAE (peptide), the DBC10% in assay [2] came to 7.03e+09 vg/mL; in [3] it was 5.84e+09 vg/mL.
For the substance GKEAAFAA (peptide), the DBC10% in assay [2] turned out to be 1.91e+10 vg/mL; in [3] it was 2.69e+10 vg/mL. Further, the DBC10% (TU/mL of resin) was determined as 1.9e+09 in assay [4], 5e+09 in assay [5], 4.3e+09 in assay [7] and 4.5e+09 in assay [8]. Moreover, the DBC10% (TU per mL of resin) in assay [6] stood at 2e+09.
As for GKEAAFAA-G (peptide), the DBC10% (TU per mL of resin) in assay [9] came to 1.8e+09.
